## Ab-14 heavy chain CDR variants: yeast mating affinities

Data: MIT Lincoln Laboratory AlphaSeq set, Li et al. 2023, doi:10.1038/s41467-023-39022-2, as distributed in FLAb.

Antigen: PDVDLGDISGINAS, a 14-residue peptide of the SARS-CoV-2 spike HR2 region.

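The starting antibody came from a phage panning campaign against this peptide. These sequences belong to a second round, designed from the earlier measurements on random variants of the parent. Several design methods are mixed in this list. AlphaSeq pools MATa yeast showing the antibodies with MATalpha yeast showing the peptide. The frequency of each diploid, read from paired DNA barcodes, reflects how well the two displayed proteins bind. Each replicate has its own calibration line, from reference interactions of the BCL2 family. There are six technical replicates.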

Parent scFv Ab-14: VH joined to VL by the linker GGGGSGGGGSGGGGS. Changes lie in the heavy chain CDRs alone.
VH: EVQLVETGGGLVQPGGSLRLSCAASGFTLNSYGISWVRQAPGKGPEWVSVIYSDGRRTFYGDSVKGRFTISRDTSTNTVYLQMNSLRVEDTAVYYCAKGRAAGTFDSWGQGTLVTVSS
VL: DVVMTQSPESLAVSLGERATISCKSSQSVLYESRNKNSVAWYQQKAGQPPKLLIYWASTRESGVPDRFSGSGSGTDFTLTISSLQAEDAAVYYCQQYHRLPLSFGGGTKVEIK

The parent's heavy chain CDRs are GFTLNSYGIS, VIYSDGRRTFYGDSVK, GRAAGTFDS; each variant's own CDRs replace them letter for letter.
Kd is apparent (estimated from mating counts) and averaged on the log scale over replicates with a signal. Smaller is tighter.
An entry "nd" has no value in the source: the pair was not observed among the diploids in any replicate. This suggests poor binding but is not conclusive.
The authors averaged sequences with at least three values out of six and counted those with two or fewer as poor binders.
The range of this assay differs from that of the first round, and the authors advise against merging the two.
As a blank, each scFv also met three strains without target: over all heavy chain designs, 1% of these pairings were detected, typically at 120 nM and seldom below 7.0 nM. Also given: how often the same scFv was detected with the empty control strains.
Of ten entries with the parent sequence, four were seen in most replicates (averages 2.2 nM to 240 nM), three in one and three in none, so single entries are noisy.

Result 1.7 nM (6 of 6 replicates; controls 0 of 18), variant GFDINEYGIS, VIYADGRRTFYADSVK, GNTGGTFDL.
Result 2.9 nM (6 of 6 replicates; controls 0 of 18), variant GFDLNSYGIS, VIYSDGRRTFYGDSVK, GKTAGTFDR.
Result 440 pM (6 of 6 replicates; controls 0 of 18), variant GFDLNEYGIS, VIYADGRRTFYSDSVK, GTVAGTFDM.
Result nd (0 of 6 replicates; controls 0 of 18), variant GFDLNSYGIC, VIYSDGRRTFYGDSVK, GRAAGWFNS.
Result 4.7 nM (4 of 6 replicates; controls 0 of 18), variant GFTLNSYGIS, VIYSDGRRSFYSDSVK, GRTAGTFDS.
Result 140 nM (5 of 6 replicates; controls 0 of 18), variant GFTLNSYGIS, VIYSDGRRTFYGDQVK, GKTAGTFDS.
Result nd (0 of 6 replicates; controls 0 of 18), variant GVELESYGIS, VIYSDGRRTGYGDSVK, GRAYGTFDS.
Result nd (0 of 6 replicates; controls 0 of 18), variant GFTLNDYGIS, VIYSDGRRTFYHDSVK, GRAAGTFWS.
Result 950 pM (6 of 6 replicates; controls 2 of 18), variant GFSLNEYGIS, VIYSDGRRTFYTDSVK, GRFAGTFDS.
Result nd (0 of 6 replicates; controls 0 of 18), variant GFNLNSYGIS, VIYSDGRRTFYGDSVK, GPAAGTFDW.
Result 600 pM (6 of 6 replicates; controls 0 of 18), variant GFDLNEYGIS, VIYADGSRTAYADDVK, GNNAGTFDI.
Result nd (0 of 6 replicates; controls 0 of 18), variant GFDLNSYGIS, VIYSDGRRTFYGDSVK, GRCAGTFVS.
Result 15 nM (6 of 6 replicates; controls 0 of 18), variant GFTLESYGIS, VIYADGRRTFYGDHVK, GRAAGTFKS.
Result 800 pM (6 of 6 replicates; controls 1 of 18), variant GFSLNEYGIS, VIYSDGRRTFYGDSVK, GKEAGTFDS.
Result 820 pM (6 of 6 replicates; controls 0 of 18), variant GFSLNSYGIS, VIYSDGRRTFYGDNVK, GQTAGTFDS.
Result nd (0 of 6 replicates; controls 0 of 18), variant GFTLLSYGIS, VIYSDGRRVFYMDSVK, GRAAGTFDS.
Result 130 pM (6 of 6 replicates; controls 0 of 18), variant GFDLDEYGIS, VIYADGMRTFYADSVK, GQVAGTFDV.
Result 110 pM (6 of 6 replicates; controls 0 of 18), variant GFDLNEYGIS, VIYADGVRTYYADSVK, GNVAGTFDI.
Result nd (0 of 6 replicates; controls 0 of 18), variant GFNIDEYGIS, VIYADGMRTFYSNAVK, GVVNGGTIS.
Result 920 pM (6 of 6 replicates; controls 0 of 18), variant GFDLDEYGIS, VIYADGKRTAYTDSVK, GNVAGTFDV.
Result 170 nM (1 of 6 replicates; controls 0 of 18), variant GFTLNEYGIS, VIYSDGRRTFYSDSVK, GRAAGRFDS.
Result nd (0 of 6 replicates; controls 0 of 18), variant GETLNSYGIS, VIYSDGRRTFYGDSVK, GRAAGTSDS.
Result 330 pM (6 of 6 replicates; controls 0 of 18), variant GFDLNEYGIS, VIYADGVRTVYADSVK, GNVAGTFDM.
Result nd (0 of 6 replicates; controls 0 of 18), variant GFTLNSYGIS, VIYSDGRRTFYGDFVK, GEAAGTFDS.
Result nd (0 of 6 replicates; controls 0 of 18), variant RFTLNEYGIS, VIYSDGRRTFYGDSVK, GRAAGTFFS.
Result 260 pM (6 of 6 replicates; controls 0 of 18), variant GFDLNEYGIS, VIYADGRRTQYIDSVK, GETAGTFDI.
Result 260 pM (6 of 6 replicates; controls 0 of 18), variant GFDLNEYGIS, VIYADGRRTFYTDSVK, GEVAGTFDL.
Result 510 pM (6 of 6 replicates; controls 0 of 18), variant GFDINEYGIS, VIYADGRRTAYADSVK, GEEAGTFDV.
Result 5.0 nM (6 of 6 replicates; controls 0 of 18), variant GFTLNSYGIS, VIYSDGRRTFYADDVK, GQAAGTFDL.
Result 490 pM (6 of 6 replicates; controls 0 of 18), variant GFDLDEYGIS, VIYADGMRTFYADSVK, GNIAGTFNS.
Result 82 nM (1 of 6 replicates; controls 0 of 18), variant GFTLESYGIS, VIYSDGRRTFYGDSVK, GWTAGTFDS.
Result 5.6 nM (5 of 6 replicates; controls 0 of 18), variant GFGLNSYGIS, VIYSDGRRTFYGDSVK, GQEAGTFDS.
Result nd (0 of 6 replicates; controls 0 of 18), variant GFDLDQYGIS, VIYADGKRVAYTADVK, GVQGGNALV.
Result 330 pM (6 of 6 replicates; controls 0 of 18), variant GFDINEYGIS, VIYADGKRTFYTDSVK, GGNAGTFDV.
Result 710 pM (6 of 6 replicates; controls 0 of 18), variant GFDLNEYGIS, VIYADGQRTAYADSVK, GTNAGTFDL.
Result 760 pM (6 of 6 replicates; controls 1 of 18), variant GFDLNEYGIS, VIYADGRRTFYSDSVK, GEAAGTFDT.

Repeated from above, the 2 best binders with a signal in all replicates:

| CDR-H1 | CDR-H2 | CDR-H3 | apparent Kd | replicates with signal | empty controls |
|---|---|---|---|---|---|
| GFDLNEYGIS | VIYADGVRTYYADSVK | GNVAGTFDI | 110 pM | 6/6 | 0/18 |
| GFDLDEYGIS | VIYADGMRTFYADSVK | GQVAGTFDV | 130 pM | 6/6 | 0/18 |